Patent publication US20030088057A1, “PEPTIDE SUBSTRATES PHOSPHORYLATED BY P21-ACTIVAGED PROTEIN KINASE STATEMENT REGARDING FEDERALLY SPONSORED REASEARCH OR DEVELOPMENT” (priority 1998, published 2003)

Biological target: T1, PKA (Bos taurus, UniProt P00517)
T1 construct: the purified catalytic subunit of cAMP-dependent protein kinase from bovine heart was a gift; from tissue; host or cells: bovine heart (gift from Dr. William H. Fletcher)
Experiment: Rates of phosphorylation of synthetic peptides by PKA
Type: biochemical, bovine
Conditions: for 32P incorporated: PKA (10.5 units), 0.14 mM ATP; for 32P incorporated, %: PKA, AKRASAA taken as 100%
Excerpt: A. Materials. γ-PAK was purified from rabbit reticulocytes to apparent homogeneity by chromatography on DEAE-cellulose, SP-Sepharose, protamine agarose, and FPLC on Mono S and Mono Q. Histone I (type IIIS), mixed histone (type IIAS), trypsin (L-1-tosylamido-2-phenylethyl chloromethyl ketone treated), soybean trypsin inhibitor, bovine serum albumin (fatty acid free), and myelin basic protein were purchased from Sigma. Purified histones 2B and 4 were purchased from Boehringer-Mannheim. Myosin light chain from rabbit skeletal muscle was a gift from Dr. James Stull, University of Texas Southwestern Medical Center, Dallas, Tex.; rat prolactin was provided by Dr. Ameae Walker, University of California, Riverside, Calif.; and the purified catalytic subunit of cAMP-dependent protein kinase from bovine heart was a gift from Dr. William H. Fletcher, J. L. Pettis Memorial V. A. Hospital, Loma Linda, Calif. Protein kinase C was purified from bovine brain according to the procedure of Walton et al. [Walton, G. M., et al., Anal Biochem., 161:425-437 (1987)], with modifications [Venema, R. C., et al., J. Biol. Chem., 266:5298-5302 (1991)]. The clone for GST-Cdc42 was generously provided by Dr. Channing Der, University of North Carolina, Chapel Hill, N.C. Cellulose thin-layer chromatography sheets were from Kodak.
Reactions with PKA (10.5 units) were carried out under the same conditions as with γ-PAK except that 0.14 mM ATP was used. Reactions with PKC (3.4 units) were performed as with PKA, with the addition of 0.4 mM CaCl2, phosphatidylinositol (15 μg/mL), phosphatidylserine (15 μg/ mL), and 1,2-diolein (3 μg/mL), as described [Tuazon, P. T., et al., (1989), supra]. A unit of PKA or PKC is defined as the amount of enzyme that incorporates 1 pmol of phosphate/min at 30° C. into histone IIAS or histone 1, respectively.
PKA and PKC are known to require basic amino acids on the N-terminal side of the phosphorylatable serine/ threonine. To distinguish their substrate specificities from that of γ-PAK, the relative rates of phosphorylation were determined with the synthetic peptide substrates using the conditions for γ-PAK, with the addition of Ca^2+ and phospholipids for PKC. The rates shown in Table 5 are calculated with equivalent units of enzyme; the rate of phosphorylation of the peptide AKRASAA (SEQ ID NO:6) is taken as 100% for all three enzymes. As would be expected, PKA preferentially phosphorylated the peptides that contained RR or RK at the −3 and −2 positions and with […] residues or proline at the −4 and −1 positions inhibitory. PKC recognized SKR>RKS>KKS. The most notable difference between γ-PAK and PKA or PKC is the effect of acidic residues on the susceptibility of the peptide to be phosphorylated. An acidic residue in the −1 or −4 position was beneficial for γ-PAK but was detrimental for both PKA and PKC (Table 5). […] In addition, γ-PAK could not tolerate an arginine in the −3 position when lysine was in the −2 position. On the other hand, PKC and PKA phosphorylated ARKASAA (SEQ ID NO:24) much more quickly than AKRASAA (SEQ ID NO:6).

Substance	32P incorporated [pmol/unit]	32P incorporated, % [%]
AKRPSAA (C-terminal amide) [synthetic peptide with an amide C-terminal group]	10.3	215
ARKASAA (C-terminal amide) [synthetic peptide with an amide C-terminal group]	107.5	2240
ARRASAA (C-terminal amide) [synthetic peptide with an amide C-terminal group]	137.1	2856
KKRKSAA [model peptide patterned after the phosphorylation site of nucleocapsid protein NC]	19.8	412
PKRASAA (C-terminal amide) [synthetic peptide with an amide C-terminal group]	–	144
RKKKSAA (C-terminal amide) [synthetic peptide with an amide C-terminal group]	–	112
